Measured values taken from BindingDB's records for US9809582, “Aminoester derivatives” (2017).

Sequences of proteins named here, by UniProt entry; tags and fusion partners are left off. A change or cut given only in a name is not applied to a line headed by its entry.
UniProt Q07343: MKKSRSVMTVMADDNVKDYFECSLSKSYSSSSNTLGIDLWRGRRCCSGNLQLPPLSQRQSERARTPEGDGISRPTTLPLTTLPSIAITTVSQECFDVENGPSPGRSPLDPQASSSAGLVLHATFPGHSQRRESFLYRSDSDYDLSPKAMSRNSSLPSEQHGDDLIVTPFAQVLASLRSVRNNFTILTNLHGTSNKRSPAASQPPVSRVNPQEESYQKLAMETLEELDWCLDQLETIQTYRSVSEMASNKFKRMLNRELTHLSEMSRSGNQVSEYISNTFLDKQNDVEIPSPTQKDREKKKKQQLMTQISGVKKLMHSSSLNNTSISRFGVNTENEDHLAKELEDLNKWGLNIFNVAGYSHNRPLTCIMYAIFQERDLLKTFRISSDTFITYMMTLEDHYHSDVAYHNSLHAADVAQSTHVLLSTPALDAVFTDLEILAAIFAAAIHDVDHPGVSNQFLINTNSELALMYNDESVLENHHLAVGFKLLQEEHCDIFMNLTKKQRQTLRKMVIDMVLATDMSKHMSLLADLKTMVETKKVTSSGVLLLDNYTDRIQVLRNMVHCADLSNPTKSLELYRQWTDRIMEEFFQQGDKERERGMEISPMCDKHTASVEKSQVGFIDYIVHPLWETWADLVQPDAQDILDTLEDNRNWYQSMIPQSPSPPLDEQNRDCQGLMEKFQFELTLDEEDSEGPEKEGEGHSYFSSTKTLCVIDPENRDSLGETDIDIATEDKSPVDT

Biological target: cAMP-specific 3',5'-cyclic phosphodiesterase 4B (Homo sapiens, UniProt Q07343)

`COc1ccc([C@H](Cc2c(Cl)c[n+]([O-])cc2Cl)OC(=O)c2ccc(CNC[C@](O)(C(=O)O[C@H]3CN4CCC3CC4)c3ccccc3)s2)cc1OC` gave an IC50 of 5.5 nM.
Molecule `COc1ccc([C@H](Cc2c(Cl)c[n+]([O-])cc2Cl)OC(=O)c2ccc(CNC[C@@](O)(C(=O)O[C@H]3CN4CCC3CC4)c3ccccc3)s2)cc1OC` has an IC50 of 5.5 nM.
